From ChEMBL document CHEMBL2086314, “Synthesis and anticonvulsant activity of new N-Mannich bases derived from 3-(2-fluorophenyl)- and 3-(2-bromophenyl)-pyrrolidine-2,5-diones. Part II” (Bioorg Med Chem, 2012) come the findings set out here.

For the assay, the species on record is Mus musculus. Description: Protective index, ratio of TD50 for CF-1 albino mouse to ED50 for CF-1 albino mouse assessed as protection from 6 Hz psychomotor seizure. Format: functional. The procedure, abridged:
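6-Hz test (32 mA, 0.2 ms pulses at 6 Hz for 3 s, corneal) in male CF-1 mice dosed ip. Quantified at the time of peak effect in groups of eight across at least three doses giving 10–90% effect. ED50 and TD50 (minimal neurological toxicity) obtained by regression; PI = TD50/ED50.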

Turning to `CC[C@@H](C(N)=O)N1CCCC1=O` [LEVETIRACETAM], the “Ratio TD50/ED50” value is recorded as greater than 26.
